From PubChem BioAssay AID817 (Emory University Molecular Libraries Screening Center, 2007)
The list shows a part of the results, in another mix than the full data. The source made the active and inactive calls.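 How the source made its calls: active means z-score above 3 at both the 24 hr and the 30 hr optical density reads; inactive means the rest, inconclusive results apart.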

experiment: growth rescue of sdo1-depleted yeast, primary screen, S. cerevisiae, bone marrow failure model (AID 817);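 further: z-score against mean and SD of all compound wells on the same plate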; settings: S. cerevisiae sdo1-depleted JHY4D growth rescue, OD600 30 h; at 10 µM; stronger effect = higher value; pdr5 snq2 efflux-pump mutant strain

Row | SMILES | z-score
1 | CCc1nc2c(n1)c1c(non1O)c1c2no[n+]1[O-] | inactive: -0.5
2 | CP(=O)(Oc1ccccc1)N1CCOC1=O (stereo not drawn) | inactive: 1.26
3 | O=[N+]([O-])c1cccc2n[nH]nc12 | inactive: -0.18
4 | CC(=O)N1C2C3N(C(C)=O)C1C1N(C(C)=O)C(C(N1C(C)=O)N3C(C)=O)N2C(C)=O | inactive: 1.37
5 | COc1ccc(OP(C)(=O)Nc2ccc(Br)cc2)cc1 (stereo not drawn) | inactive: 0.2
6 | CCN(CC)CC(O)COC(=O)C(O)(c1ccccc1)C1CCCCC1 (stereo not drawn) | inactive: 1.98
7 | CC1CCN(C(=O)Oc2c(Cl)cc(Cl)c3cccnc23)CC1 | inactive: -1.07
8 | CN(C)C(=O)OCCc1n(C)cc[n+]1C | inactive: 1.28
9 | CP(=O)(Nc1ccc(Cl)cc1)Oc1ccc(F)cc1 (stereo not drawn) | inactive: 0.5
10 | CC(C)(C)c1ccc(OP(C)(=O)O)cc1 | inactive: 0.54
11 | CP(=O)(OC12CC3CC(CC(C3)C1)C2)OC12CC3CC(CC(C3)C1)C2 | inactive: -0.66
12 | CCOC(=O)c1ccc(NP(C)(=O)Oc2ccc(Cl)cc2)cc1 (stereo not drawn) | inactive: -0.94
13 | COc1ccc(OP(C)(=O)Nc2ccccc2Br)cc1 (stereo not drawn) | inactive: 0.17
14 | COc1ccccc1OP(C)(=O)Nc1ccc(C)c(C)c1 (stereo not drawn) | inactive: 0.48
15 | CCOP(=O)(Nc1ccccc1)OCC | inactive: 0.49
16 | Cc1cc(SC(NC(=O)c2ccc(F)cc2)C(Cl)(Cl)Cl)ncn1 (stereo not drawn) | inactive: 0.55
17 | CCN(N=Nc1nonc1N)c1nonc1N | inactive: 0.47
18 | Cc1nc2ccc3ccccc3c2o1.O=[N+]([O-])c1cc([N+](=O)[O-])c(O)c([N+](=O)[O-])c1 | inactive: -0.33
19 | CN(C)CCOC(=O)C(O)(c1ccccc1)C1CCCC1 (stereo not drawn) | inactive: 0.05
20 | CN1CCCC(OC(=O)C(c2ccccc2)c2ccccc2)C1 (stereo not drawn) | inactive: 0.86
21 | COc1ccc(OP(C)(=O)Nc2ccccn2)cc1 (stereo not drawn) | inactive: 0.14
22 | CCc1ccc(OP(C)(=O)O)cc1 | inactive: -0.15
23 | COc1ccccc1OP(C)(=O)Nc1ccc(C)cc1C (stereo not drawn) | inactive: 0.33
24 | CP(=O)(Nc1ccccn1)Oc1ccccc1 (stereo not drawn) | inactive: 1.1

Row | SMILES | z-score
25 | Cc1c2non([O-])c-2c(C)[n+](=O)[n+]1[O-] | inactive: -1.4
26 | O=C(NC(Sc1ccncn1)C(Cl)(Cl)Cl)c1ccccc1 (stereo not drawn) | inactive: 0.76
27 | Oc1ccccc1CNc1ccccn1 | inactive: 0.77
28 | CC(C)CC(=O)NC(Sc1ccc(Cl)cc1)C(Cl)(Cl)Cl (stereo not drawn) | inactive: 0.18
29 | Cc1c(NP(C)(=O)Oc2ccc(C(C)C)cc2)c(=O)n(-c2ccccc2)n1C (stereo not drawn) | inactive: 0.32
30 | CC(C)c1ccc(OP(C)(=O)Nc2ccc(SC(F)(F)F)cc2)cc1 (stereo not drawn) | inactive: -0.45
31 | CP(=O)(Nc1ccccc1F)Oc1ccccc1 (stereo not drawn) | inactive: 0.8
32 | O=P1(Nc2nc3ccc(Cl)cc3s2)COc2ccccc2O1 (stereo not drawn) | inactive: 1.34
33 | O=C(OCCN1CCN(CCOCc2ccccc2)CC1)C(O)(c1ccccc1)c1ccccc1 | inactive: 0.36
34 | CCOC(=O)c1ccc(NP(C)(=O)Oc2ccc(F)cc2)cc1 (stereo not drawn) | inactive: -0.4
35 | CCOC(=O)NC(Sc1ccccc1)C(Cl)(Cl)Cl (stereo not drawn) | inactive: 0.1
36 | CP(=O)(Nc1ccccc1)Oc1ccc(F)cc1 (stereo not drawn) | inactive: -0.34
37 | CCN(CC)CCCOC(=O)C(O)(c1ccccc1)C1CCCCC1 (stereo not drawn) | inactive: -0.07
38 | CCC(=O)N1C2C3N(C(=O)CC)C1C1N(C(=O)CC)C(C(N1C(=O)CC)N3C(=O)CC)N2C(=O)CC | inactive: -0.43
39 | CC(=O)NC(SC(=S)N(CC(C)C)CC(C)C)C(Cl)(Cl)Cl (stereo not drawn) | inactive: -0.62
40 | COC(=O)c1cc2c(s1)N=C(c1ccccc1)N(C)P2(=O)N1CCOCC1 (stereo not drawn) | inactive: -0.2
41 | CN(C)CCOC(=O)C(O)(c1ccccc1)C1CCCCC1 (stereo not drawn) | inactive: 0.36
42 | COc1ccc(OP(C)(=O)Nc2cccc(Br)c2)cc1 (stereo not drawn) | inactive: -0.78
43 | O=C(OC1CN2CCC1CC2)c1cccc(Cl)c1 (stereo not drawn) | inactive: 0.6
44 | C(Cc1nn[nH]n1)Cc1nn[nH]n1 | inactive: 0.4
45 | CC(=O)NC(SC(=S)N(C)C)C(Cl)(Cl)Cl (stereo not drawn) | inactive: -2.06
46 | c1nnnn1CCn1cnnn1 | inactive: 0.53
47 | CCOP(C)(=S)SCC(=O)NC(C)(CC)C(=O)O (stereo not drawn) | inactive: 0.24
48 | CC(C)C(=O)NC(Sc1ccccc1)C(Cl)(Cl)Cl (stereo not drawn) | inactive: 0.32
